Broadly, the pKi is the Ki on a negative log10 scale, so that one unit is a factor of ten. Read a high pKi as a small Ki.

Protein sequences, listed by entry. Tags and fused reporters are not part of them. Lines headed by an entry give the natural chain unless they say otherwise; changes in a name come on top.
UniProt Q9Y5N1: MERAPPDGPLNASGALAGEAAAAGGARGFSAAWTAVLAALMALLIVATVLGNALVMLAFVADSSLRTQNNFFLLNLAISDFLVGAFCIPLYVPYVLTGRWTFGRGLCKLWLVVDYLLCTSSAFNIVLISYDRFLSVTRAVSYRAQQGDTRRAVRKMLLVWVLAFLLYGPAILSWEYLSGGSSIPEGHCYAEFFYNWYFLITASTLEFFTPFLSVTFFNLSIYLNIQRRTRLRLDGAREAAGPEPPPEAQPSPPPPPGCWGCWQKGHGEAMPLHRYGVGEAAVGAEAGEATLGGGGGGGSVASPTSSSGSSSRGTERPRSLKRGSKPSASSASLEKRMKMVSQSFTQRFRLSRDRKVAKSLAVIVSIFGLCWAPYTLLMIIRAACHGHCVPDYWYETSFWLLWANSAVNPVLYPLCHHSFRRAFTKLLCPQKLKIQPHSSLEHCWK

pKi: −log10 of the molar value.

Drawing on US20040198743A1 (Schering Corporation, priority 2003, published 2004), this text covers Ki for 1 compound.

The test has as its target T1, Histamine Receptor H3 (Homo sapiens, UniProt Q9Y5N1).
T1 construct: expressed in transfected cells; host or cells: HEK293
In words: Membrane binding assay, [3H]-N'-methylhistamine for H3 binding. The protocol: Materials. Rat and guinea-pig brains were obtained frozen from Rockland Immunochemicals (Gilbertsville, Pa.). Cell lines expressing recombinant human receptors were generated by using standard transfection techniques. The following radioligands were obtained from Dupont NEN (Boston, Mass.): [^3H]-pyrilamine, 23 Ci/mmol for H 1 binding and [^3H]-N′-methylhistamine, 82 Ci/mmol for H3 binding.
Methods. Recombinant cell lines (i.e., human H1—CHO cells and human H3-HEK293) were cultured in Dulbecco's modified Eagle's medium/10% fetal bovine serum supplemented with 2 mM glutamine, penicillin (100 U/ml), and streptomycin (100 μg/ml) in a humidified 5% CO2 atmosphere at 37° C. Selection was maintained with 0.5 mg geneticin/ml. […]
Binding assays. […] Nonspecific binding was determined in the presence of 10^−6 M chlorpheniramine for H1 binding or 10^−6 M clobenpropit for H3 binding. […] These were washed three times with 1.2 ml of Tris buffer, dried in a microwave oven, impregnated with Meltilex wax scintillant and counted at 40% efficiency in a Betaplate scintillation counter (Wallac). IC50 values were determined by interpolation or by nonlinear, least-squares, curve-fitting with the Prism program (GraphPad Software). Ki values were determined in the manner of Cheng and prusoff (Cheng, et al., (1973) Biochem. Pharm. 22:3099-3108).

For `NC(=NCc1ccc(Cl)cc1)SCCCc1cnc[nH]1` [Formula 16], the pKi was 10.22.
